Results on 1 substance are retold here after patent US20200407708A1.

Sequences of proteins named here, by UniProt entry; tags and fusion partners are left off. Residues count along the entry.
UniProt P22629, 37-163 limits assumed: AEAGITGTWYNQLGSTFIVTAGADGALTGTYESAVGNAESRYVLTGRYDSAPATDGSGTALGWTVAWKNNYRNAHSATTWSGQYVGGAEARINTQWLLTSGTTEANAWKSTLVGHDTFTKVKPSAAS

The experiment has as its target streptavidin (UniProt P22629). Nature of the experiment: gel shift with streptavidin.

Consider biotinylated MNase-SpyCatcher002 (S50C), for which the percent of protein biotinylated (shifted in the presence of streptavidin) came out at 90%.
